According to ChEMBL document CHEMBL1961794, “Regulation of circadian behaviour and metabolism by synthetic REV-ERB agonists” (Nature, 2012):

Experiments:
[1] = biological target: T1, Nuclear receptor subfamily 1 group D member 1 (Homo sapiens, UniProt P20393); assay: REV-ERB-alpha mediated transcriptional suppression at Bmal1 promoter in HEK293 cell reporter assay; assay type: functional, cell-based
T1 sequence (P20393 whole entry): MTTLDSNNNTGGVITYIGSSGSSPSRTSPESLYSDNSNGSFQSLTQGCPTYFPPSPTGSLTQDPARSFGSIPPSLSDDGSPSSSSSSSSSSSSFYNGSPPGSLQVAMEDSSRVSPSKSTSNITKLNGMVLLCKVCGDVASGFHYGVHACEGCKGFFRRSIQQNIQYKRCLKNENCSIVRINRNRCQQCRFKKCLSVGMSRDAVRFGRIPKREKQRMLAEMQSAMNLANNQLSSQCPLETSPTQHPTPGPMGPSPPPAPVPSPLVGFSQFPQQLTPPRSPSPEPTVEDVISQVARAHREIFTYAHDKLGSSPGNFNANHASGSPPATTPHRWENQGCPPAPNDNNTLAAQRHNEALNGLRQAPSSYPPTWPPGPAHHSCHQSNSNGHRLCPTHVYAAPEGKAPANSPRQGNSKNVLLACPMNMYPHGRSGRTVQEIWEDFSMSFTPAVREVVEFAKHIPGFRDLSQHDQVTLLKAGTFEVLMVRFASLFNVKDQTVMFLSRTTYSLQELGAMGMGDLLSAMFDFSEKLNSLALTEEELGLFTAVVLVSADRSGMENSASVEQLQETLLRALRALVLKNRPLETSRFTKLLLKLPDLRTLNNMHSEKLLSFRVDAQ

[2] = biological target: T1, Nuclear receptor subfamily 1 group D member 1; assay: Dissociation constant for binding to REV-ERB-alpha by circular dichroism
[3] = biological target: T1, Nuclear receptor subfamily 1 group D member 1; assay: Increased REV-ERB-alpha LBD dependent repressor activity in HEK293 cell reporter assay; assay type: cell-based

`CCOC(=O)N1CCC(CN(Cc2ccc(Cl)cc2)Cc2ccc([N+](=O)[O-])s2)C1` (stereo not drawn) [SR9009] was tested, and the IC50 [1] was 710 nM (agonist), the Kd [2] was 800 nM and the IC50 [3] was 670 nM (agonist).
